Experimental data: patent US9320741B2, “Compositions and methods for treating neoplasia, inflammatory disease and other disorders” (Dana-Farber Cancer Institute, Inc., priority 2010, dated 2016)

Key:
[1] = tested on: Keratin-14, Keratin-10, epidermal transglutaminase (TGM1); assay: RT-PCR expression analysis of squamous tissue genes in NMC 797 cells; format: cell-based, human
BRD4(2) = BRD4(2) (Homo sapiens (Human), UniProt O60885); assay: Alpha-assay acetyl-histone binding, BRD4 site 2; conditions: 12-point dose response curve, read-out: Bio-assay IC50 BRD4(2)

Q: Which “induction of Keratin-14” value [1] does the source give for `Cc1sc2c(c1C)C(c1ccc(Cl)cc1)=N[C@@H](CC(=O)OC(C)(C)C)c1nnc(C)n1-2` (single isomer, unassigned) [(+)-JQ1] here?
A: 30 fold

Q: With `Cc1sc2c(c1C)C(c1ccc(Cl)cc1)=NC(CC(=O)NCCCN1CCN(C)CC1)c1nnc(C)n1-2` (centres unmarked) [JQ35] as the molecule, how does the IC50 (BRD4(2)) read?
A: 6.13 nM
